This test concerns the target T1, Tyrosine-protein phosphatase non-receptor type 1 [1-298] (Homo sapiens, UniProt P18031).
T1 construct: 1-298
T1 sequence (P18031 whole entry): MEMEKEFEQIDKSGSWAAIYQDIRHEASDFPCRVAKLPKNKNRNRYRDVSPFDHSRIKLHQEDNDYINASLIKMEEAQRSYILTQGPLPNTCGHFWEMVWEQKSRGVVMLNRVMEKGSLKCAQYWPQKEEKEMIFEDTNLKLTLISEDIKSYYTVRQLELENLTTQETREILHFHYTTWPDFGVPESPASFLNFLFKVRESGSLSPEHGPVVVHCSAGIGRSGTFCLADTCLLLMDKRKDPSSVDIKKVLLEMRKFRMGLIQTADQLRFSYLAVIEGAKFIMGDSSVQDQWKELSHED
Nature of the test: PTP1B and TCPTP Inhibition Assay. Particulars: pH 7.5; 22 °C.

In the case of `CCc1cc(CC(NC(C)=O)C(=O)NCCCCOc2cccc(O)c2C(=O)OC)ccc1N(C(=O)C(=O)O)c1ccccc1C(=O)O` (stereo unspecified), the affinity, expressed as Ki, was 18 µM.

The values are drawn from BindingDB's records for doi:10.1016/j.bmcl.2003.08.064 (Abbott Laboratories, 2003).
